This note sets out measurements from patent US10010560B2, “Small molecule HSP70 inhibitors” (THE TRUSTEES OF THE UNIVERSITY OF PENNSYLVANIA, priority 2014, dated 2018).

Chains of the proteins cited; added tags and fusions are not shown.
UniProt P0A6Y8, whole entry: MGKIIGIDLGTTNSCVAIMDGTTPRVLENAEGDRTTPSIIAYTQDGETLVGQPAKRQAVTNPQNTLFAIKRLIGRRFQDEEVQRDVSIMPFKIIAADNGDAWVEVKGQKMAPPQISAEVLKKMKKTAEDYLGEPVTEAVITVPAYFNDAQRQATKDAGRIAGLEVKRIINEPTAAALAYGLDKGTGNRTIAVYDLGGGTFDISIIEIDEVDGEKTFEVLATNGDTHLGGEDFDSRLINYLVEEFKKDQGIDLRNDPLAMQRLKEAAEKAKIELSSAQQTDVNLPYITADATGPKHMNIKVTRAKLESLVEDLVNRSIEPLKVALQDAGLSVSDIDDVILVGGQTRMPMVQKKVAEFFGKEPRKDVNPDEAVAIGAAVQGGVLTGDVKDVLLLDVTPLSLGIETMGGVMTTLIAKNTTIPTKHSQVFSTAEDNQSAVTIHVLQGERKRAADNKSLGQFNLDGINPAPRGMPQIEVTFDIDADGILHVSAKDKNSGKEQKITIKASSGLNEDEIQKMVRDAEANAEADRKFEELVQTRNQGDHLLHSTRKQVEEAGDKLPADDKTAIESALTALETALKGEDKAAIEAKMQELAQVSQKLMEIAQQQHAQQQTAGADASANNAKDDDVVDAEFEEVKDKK
UniProt P0DMV8, whole entry E110D: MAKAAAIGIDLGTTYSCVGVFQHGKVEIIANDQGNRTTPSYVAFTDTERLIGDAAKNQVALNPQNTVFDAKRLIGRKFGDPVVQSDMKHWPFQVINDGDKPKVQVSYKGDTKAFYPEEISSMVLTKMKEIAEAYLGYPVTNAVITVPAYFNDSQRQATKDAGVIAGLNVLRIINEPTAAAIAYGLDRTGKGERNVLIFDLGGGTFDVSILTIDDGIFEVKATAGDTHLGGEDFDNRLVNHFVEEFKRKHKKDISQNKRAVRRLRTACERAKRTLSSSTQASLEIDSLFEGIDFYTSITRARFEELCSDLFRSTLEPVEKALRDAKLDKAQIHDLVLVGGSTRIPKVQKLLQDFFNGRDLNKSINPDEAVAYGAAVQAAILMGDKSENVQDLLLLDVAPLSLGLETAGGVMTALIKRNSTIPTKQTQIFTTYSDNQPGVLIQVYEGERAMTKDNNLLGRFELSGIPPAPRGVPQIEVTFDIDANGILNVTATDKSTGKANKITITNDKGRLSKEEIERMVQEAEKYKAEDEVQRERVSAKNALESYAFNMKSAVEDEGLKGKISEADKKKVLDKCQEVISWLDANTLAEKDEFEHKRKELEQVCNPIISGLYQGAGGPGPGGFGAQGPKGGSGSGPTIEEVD
UniProt P0DMV8, whole entry E110D/D506A: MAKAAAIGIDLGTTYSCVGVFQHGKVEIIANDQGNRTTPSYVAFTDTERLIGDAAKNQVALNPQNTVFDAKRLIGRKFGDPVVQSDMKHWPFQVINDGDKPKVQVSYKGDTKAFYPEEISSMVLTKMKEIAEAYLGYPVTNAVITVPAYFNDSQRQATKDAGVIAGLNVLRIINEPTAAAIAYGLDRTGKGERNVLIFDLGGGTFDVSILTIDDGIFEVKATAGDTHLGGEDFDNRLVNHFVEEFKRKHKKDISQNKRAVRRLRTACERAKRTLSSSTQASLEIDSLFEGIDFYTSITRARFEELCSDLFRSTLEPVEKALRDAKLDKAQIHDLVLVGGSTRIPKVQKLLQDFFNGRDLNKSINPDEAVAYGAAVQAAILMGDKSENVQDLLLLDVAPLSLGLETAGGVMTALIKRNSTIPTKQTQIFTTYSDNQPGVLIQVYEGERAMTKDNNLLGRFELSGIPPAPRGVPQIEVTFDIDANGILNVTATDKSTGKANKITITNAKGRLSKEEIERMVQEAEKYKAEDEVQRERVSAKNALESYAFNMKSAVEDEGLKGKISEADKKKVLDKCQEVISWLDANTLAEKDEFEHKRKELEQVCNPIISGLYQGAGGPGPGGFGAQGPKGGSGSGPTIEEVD
UniProt P0DMV8, whole entry E110D/G484D: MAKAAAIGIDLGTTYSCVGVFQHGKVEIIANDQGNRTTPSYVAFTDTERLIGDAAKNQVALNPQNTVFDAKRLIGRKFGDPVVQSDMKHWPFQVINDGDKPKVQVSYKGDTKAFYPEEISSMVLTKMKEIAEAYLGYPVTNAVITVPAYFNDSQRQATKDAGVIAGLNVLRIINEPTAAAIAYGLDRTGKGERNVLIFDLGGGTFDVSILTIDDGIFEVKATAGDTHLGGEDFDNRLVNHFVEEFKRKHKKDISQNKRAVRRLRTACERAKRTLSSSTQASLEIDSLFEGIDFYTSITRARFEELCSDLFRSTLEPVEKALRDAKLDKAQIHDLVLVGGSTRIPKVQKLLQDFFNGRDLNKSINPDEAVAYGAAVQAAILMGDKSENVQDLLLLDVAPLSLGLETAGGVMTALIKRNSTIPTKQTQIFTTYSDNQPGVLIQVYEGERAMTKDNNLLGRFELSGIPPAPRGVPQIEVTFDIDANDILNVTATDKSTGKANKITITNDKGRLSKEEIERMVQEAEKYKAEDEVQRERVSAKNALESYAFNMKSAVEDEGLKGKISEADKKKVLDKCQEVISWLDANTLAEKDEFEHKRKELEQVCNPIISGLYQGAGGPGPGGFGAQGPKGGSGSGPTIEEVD
UniProt P0DMV8, whole entry E110D/L394D: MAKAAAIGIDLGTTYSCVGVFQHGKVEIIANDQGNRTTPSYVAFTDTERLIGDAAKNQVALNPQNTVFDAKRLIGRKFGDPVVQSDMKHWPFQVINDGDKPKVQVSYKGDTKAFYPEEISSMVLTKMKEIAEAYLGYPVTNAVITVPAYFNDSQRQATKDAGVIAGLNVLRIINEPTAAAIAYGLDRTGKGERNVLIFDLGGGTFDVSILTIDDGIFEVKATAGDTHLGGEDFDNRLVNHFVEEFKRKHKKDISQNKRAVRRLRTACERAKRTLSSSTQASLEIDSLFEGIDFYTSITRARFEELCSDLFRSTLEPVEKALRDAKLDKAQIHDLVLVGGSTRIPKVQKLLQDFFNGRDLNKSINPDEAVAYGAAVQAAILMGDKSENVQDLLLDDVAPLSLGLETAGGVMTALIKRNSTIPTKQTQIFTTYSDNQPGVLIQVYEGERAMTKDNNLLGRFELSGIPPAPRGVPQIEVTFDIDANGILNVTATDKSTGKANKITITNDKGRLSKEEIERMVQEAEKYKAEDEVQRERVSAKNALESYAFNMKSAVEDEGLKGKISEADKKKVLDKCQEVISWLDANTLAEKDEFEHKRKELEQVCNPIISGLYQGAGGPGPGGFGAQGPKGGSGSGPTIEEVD
UniProt P0DMV8, whole entry E110D/L401R: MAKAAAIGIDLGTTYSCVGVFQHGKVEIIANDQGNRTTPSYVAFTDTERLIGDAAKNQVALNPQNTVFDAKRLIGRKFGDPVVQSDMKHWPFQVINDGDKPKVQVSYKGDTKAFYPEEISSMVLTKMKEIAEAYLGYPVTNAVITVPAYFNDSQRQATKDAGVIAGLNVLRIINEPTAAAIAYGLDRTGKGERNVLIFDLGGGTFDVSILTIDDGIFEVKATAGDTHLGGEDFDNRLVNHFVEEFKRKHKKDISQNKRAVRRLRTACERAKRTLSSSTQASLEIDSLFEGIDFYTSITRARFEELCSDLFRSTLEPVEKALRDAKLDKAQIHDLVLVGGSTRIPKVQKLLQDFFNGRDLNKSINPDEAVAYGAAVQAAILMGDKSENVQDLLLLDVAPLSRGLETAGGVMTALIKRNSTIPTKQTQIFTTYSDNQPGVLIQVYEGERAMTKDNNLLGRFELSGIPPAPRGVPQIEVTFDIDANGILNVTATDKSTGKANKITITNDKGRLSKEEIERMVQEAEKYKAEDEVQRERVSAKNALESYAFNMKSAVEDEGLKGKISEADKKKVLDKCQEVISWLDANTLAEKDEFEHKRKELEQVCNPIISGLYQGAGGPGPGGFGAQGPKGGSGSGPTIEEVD
UniProt P0DMV8, whole entry E110D/N505D: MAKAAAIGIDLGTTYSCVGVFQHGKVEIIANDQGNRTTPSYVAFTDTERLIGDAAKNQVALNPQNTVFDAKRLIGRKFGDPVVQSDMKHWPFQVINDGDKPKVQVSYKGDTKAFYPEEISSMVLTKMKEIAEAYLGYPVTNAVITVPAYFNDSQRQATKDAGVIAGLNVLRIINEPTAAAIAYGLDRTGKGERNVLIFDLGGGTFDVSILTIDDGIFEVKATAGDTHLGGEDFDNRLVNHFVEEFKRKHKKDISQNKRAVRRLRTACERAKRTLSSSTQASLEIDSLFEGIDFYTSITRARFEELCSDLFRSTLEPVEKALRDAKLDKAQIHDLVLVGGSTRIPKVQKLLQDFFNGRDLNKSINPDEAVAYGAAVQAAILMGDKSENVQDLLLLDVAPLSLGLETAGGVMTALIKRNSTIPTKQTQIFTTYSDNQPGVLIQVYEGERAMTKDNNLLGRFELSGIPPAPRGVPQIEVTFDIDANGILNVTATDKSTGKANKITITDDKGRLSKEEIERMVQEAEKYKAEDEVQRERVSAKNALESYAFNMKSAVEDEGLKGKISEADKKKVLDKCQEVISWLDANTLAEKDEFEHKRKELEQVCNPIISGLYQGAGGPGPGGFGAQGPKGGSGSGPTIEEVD
UniProt P0DMV8, whole entry E110D/P398L: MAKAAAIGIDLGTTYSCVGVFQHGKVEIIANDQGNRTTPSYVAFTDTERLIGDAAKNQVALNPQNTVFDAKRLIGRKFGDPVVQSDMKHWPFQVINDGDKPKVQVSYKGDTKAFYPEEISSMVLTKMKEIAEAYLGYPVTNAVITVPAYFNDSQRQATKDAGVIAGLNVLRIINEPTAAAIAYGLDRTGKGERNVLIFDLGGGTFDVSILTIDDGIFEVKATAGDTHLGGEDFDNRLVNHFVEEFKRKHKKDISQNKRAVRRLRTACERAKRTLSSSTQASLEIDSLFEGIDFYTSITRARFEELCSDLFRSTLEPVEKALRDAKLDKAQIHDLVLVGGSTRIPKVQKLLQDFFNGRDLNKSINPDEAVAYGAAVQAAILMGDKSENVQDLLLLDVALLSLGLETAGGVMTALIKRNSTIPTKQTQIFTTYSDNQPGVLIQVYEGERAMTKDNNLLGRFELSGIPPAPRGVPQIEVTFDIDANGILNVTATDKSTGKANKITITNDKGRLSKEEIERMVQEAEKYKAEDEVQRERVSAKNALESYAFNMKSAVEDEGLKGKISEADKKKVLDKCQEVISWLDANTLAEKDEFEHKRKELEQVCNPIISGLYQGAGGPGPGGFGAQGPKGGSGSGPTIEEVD

One assay has as its system E. coli DH5α. Nature of the assay: Growth of E. coli DH5α at 43° C. The following applies: 6 h at 43° C.; tested form: bromide. Type of assay: cell-based. The protocol:
FIGS. 2A-2D illustrate the cytotoxicity of PET-16 to human tumor cells and its inhibition on E. coli growth. FIG. 2A is a line graph with data obtained from MTT assays of human melanoma cell lines treated with the indicated concentrations of PES or PET-16 for 72 h. The corresponding cell survival is normalized to vehicle (DMSO) treatment. Average and standard deviation (s.d.) from three independent experiments are shown. FIG. 2B are bar graphs of human melanoma (A875) cells and nontransformed human (IMR90) fibroblasts that were treated with DMSO, 10 μM PES or 10 μM PET-16 for 24 h. […] FIG. 2C is a line graph illustrating the growth of E. coli DH5α treated with different concentrations of PES or PET-16 for 6 h at 43° C. Error bars represent the s.d. of four independent experiments. FIG. 2D is a bar graph illustrating the growth of E. coli DH5α treated with DMSO, 30 μM PET-16 or 30 μM TPP for 6 h at 43° C. Error bars represent the s.d. of four independent experiments.
FIGS. 9A-9H illustrate that PET-16 binds directly to ADP-bound HSP70 and is cytotoxic to human tumor cells. FIGS. 9A-9C are ITC assays of the interaction of PET-3C with purified human HSP70-ADP (A), human HSP70-ATP (B) and DnaK-ADP (C) proteins. The data are representative of three independent experiments. […]

For another assay, the target named is ADP-DnaK (WT, aa 1-638) (Escherichia coli, UniProt P0A6Y8). Nature of the assay: ITC binding to ADP-bound full-length DnaK. Details: species or system E. coli. The note with it: in words, tested form: bromide.
A further assay addresses ADP-HSP70 (WT, aa 1-641) (Homo sapiens, UniProt P0DMV8, E110D). Nature of the assay: ITC binding to ADP-bound full-length HSP70. The following applies: for Kd: wild-type full-length ADP-bound HSP70, tested form: bromide. The source says:
(§1) The human stress-inducible HSP70 (residues 1-641 or 386-616 of SEQ ID NO: 2) and E. coli DnaK (residues 1-638, 389-607, or 393-507 of SEQ ID NO: 4) were cloned into the pET25 vector (EMD Millipore Chemicals, Inc., Billerica, Mass., USA) between the NdeI and XhoI restriction sites. The full-length HSP70 and DnaK mutants were constructed by PCR-based site-directed mutagenesis using the QuikChange™ Site-Directed Mutagenesis Kit (Agilent Technologies, Inc., Santa Clara, Calif., USA). All plasmid inserts were verified by DNA sequencing. All HSP70 and DnaK variants were produced with a N-terminal His6-tag in the E. coli BL21 Star (DE3) strain (Invitrogen catalog number C6010-03). The resulting strains were grown at 37° C. in LB medium containing 50 μg/mL of carbenicillin (Sigma-Aldrich Co., St. Louis, Mo., USA). At an OD600 about 0.3 to about 0.5, protein expression was induced with 0.5 mM isopropyl-β-D-thiogalactopyranoside (IPTG), and cells were subsequently grown at 25° C. for about 16 h. Cells were collected by centrifugation and resuspended in the Bugbuster® Master Mix (EMD Millipore Chemicals catalog number 71456-4), supplemented with protease inhibitors, 1 mM diethiothreitol (DTT) and 20 mM imidazole. The His6-tagged fusion proteins were isolated on Ni^2+-chelating resins (Ni-NTA Superflow, Qiagen catalog number 30410) by standard procedures. When necessary, size-exclusion chromatography on a Superdex® 200 or a Superose® 6 10/300 GL columns (GE Healthcare) analytical column pre-equilibrated with 1× Dulbecco's Phosphate Buffered Saline (DPBS—Invitrogen 14190-136), 1 mM Tris-HCl (pH 7.4) or 10 mM Tris-HCl (pH 7) was used as the final purification step. The purified DnaK proteins were dialyzed thoroughly against 1× DPBS with 5 mM DTT at 4° C., for crystallization trials involving the small molecule inhibitor PET-16. For isothermal titration calorimetry studies, all HSP70 and DnaK variants were dialyzed extensively against the buffers as noted below under the section entitled “Isothermal Titration calorimetry Studies”. […]

The next assay addresses ATP-HSP70 (WT) (Homo sapiens, UniProt P0DMV8, E110D). Nature of the assay: ITC binding to ATP-bound full-length HSP70. The following applies: for Kd: wild-type full-length ATP-bound HSP70, tested form: bromide.
From the text: as §1

Another assay deals with ADP-HSP70 P398L (Homo sapiens, UniProt P0DMV8, E110D/P398L). Put plainly: ITC, mutated full-length ADP-HSP70. It is filed as binding. The following applies: ADP-HSP70 mutant P398L, tested form: bromide. The source says:
(§2) The human stress-inducible HSP70 (residues 1-641 or 386-616 of SEQ ID NO: 2) and E. coli DnaK (residues 1-638, 389-607, or 393-507 of SEQ ID NO: 4) were cloned into the pET25 vector (EMD Millipore Chemicals, Inc., Billerica, Mass., USA) between the NdeI and XhoI restriction sites. The full-length HSP70 and DnaK mutants were constructed by PCR-based site-directed mutagenesis using the QuikChange™ Site-Directed Mutagenesis Kit (Agilent Technologies, Inc., Santa Clara, Calif., USA). All plasmid inserts were verified by DNA sequencing. All HSP70 and DnaK variants were produced with a N-terminal His6-tag in the E. coli BL21 Star (DE3) strain (Invitrogen catalog number C6010-03). The resulting strains were grown at 37° C. in LB medium containing 50 μg/mL of carbenicillin (Sigma-Aldrich Co., St. Louis, Mo., USA). At an OD600 about 0.3 to about 0.5, protein expression was induced with 0.5 mM isopropyl-β-D-thiogalactopyranoside (IPTG), and cells were subsequently grown at 25° C. for about 16 h. Cells were collected by centrifugation and resuspended in the Bugbuster® Master Mix (EMD Millipore Chemicals catalog number 71456-4), supplemented with protease inhibitors, 1 mM diethiothreitol (DTT) and 20 mM imidazole. The His6-tagged fusion proteins were isolated on Ni^2+-chelating resins (Ni-NTA Superflow, Qiagen catalog number 30410) by standard procedures. When necessary, size-exclusion chromatography on a Superdex® 200 or a Superose® 6 10/300 GL columns (GE Healthcare) analytical column pre-equilibrated with 1× Dulbecco's Phosphate Buffered Saline (DPBS—Invitrogen 14190-136), 1 mM Tris-HCl (pH 7.4) or 10 mM Tris-HCl (pH 7) was used as the final purification step. The purified DnaK proteins were dialyzed thoroughly against 1× DPBS with 5 mM DTT at 4° C., for crystallization trials involving the small molecule inhibitor PET-16. For isothermal titration calorimetry studies, all HSP70 and DnaK variants were dialyzed extensively against the buffers as noted below under the section entitled “Isothermal Titration calorimetry Studies”. The dialyzed proteins were subsequently microcentrifugated at 15,000×g for 5 min at 4° C. and aliquots of the soluble proteins were stored at −80° C.
(§3) All ITC experiments were performed using a MicroCal VP-ITC isothermal titration calorimeter (MicroCal). Both full-length HSP70 and DnaK proteins and DnaK (aa 393-507) proteins were prepared in 1 mM Tris-HCl (pH 7.4) buffer containing 3% dimethylsulfoxide (DMSO). The HSP70 (aa 386-616) protein was prepared in buffer containing 3% DMSO and 10 mM Tris-HCl, pH 7. The syringe was loaded with purified protein in either 1 mM Tris-HCl (pH 7.4) buffer containing 3% DMSO or 10 mM Tris-HCl (pH 7) buffer containing 3% DMSO. The sample cell of the calorimeter was loaded with PES, PET-16 or NRLLLTG (SEQ ID NO: 7) prepared in the same buffer. All solutions were degassed for 5 min.
(§4) The titrations involving the full-length purified proteins were performed at 25° C. with injection volumes of 12 μL and a spacing of 300 s. The titrations involving the purified HSP70 (aa 386-616) and DnaK (aa 393-507) were performed at 42° C. with injection volumes of 12 μL and a spacing of 300 s. Heat from the pre-injection was not used during fitting. The data were fit using a one-site binding model available in the Origin® ITC data analysis software (MicroCal Origin® V5.0, MicroCal Software, Northampton, Mass.). Error values obtained from the MicroCal Origin® V5.0 software were averaged and reported.
(§5) The information from crystal structure analysis pointed to particular amino acid residues as potential contact sites for interaction with PET-16. Single point mutants were thereby introduced in the context of a full-length DnaK protein, as well as at the corresponding residues within HSP70; these mutant proteins were analyzed by ITC for ability to bind to PET-16. The DnaK mutations included residues L392D, P396L, L399R, G482D, A503D and […]; those in HSP70 were L394D, P398L, L401R, G484D, N505D and D506A. […]
In general terms: Isothermal titration calorimetry measures the heat released or taken up as one component is titrated into another.

Another assay concerns the target ADP-HSP70 G484D (Homo sapiens, UniProt P0DMV8, E110D/G484D). Nature of the assay: ITC, mutated full-length ADP-HSP70. Type of assay: binding. The note with it: ADP-HSP70 mutant G484D, tested form: bromide.
From the text: as §2, §3, §4, §5

In a further assay the target is ADP-HSP70 N505D (Homo sapiens, UniProt P0DMV8, E110D/N505D). Nature of the assay: ITC, mutated full-length ADP-HSP70. Type of assay: binding. The note with it: ADP-HSP70 mutant N505D, tested form: bromide.
From the text: as §2, §3, §4, §5

The target of another assay is ADP-HSP70 D506A (Homo sapiens, UniProt P0DMV8, D506A/E110D). Nature of the assay: ITC, mutated full-length ADP-HSP70. Type of assay: binding. The following applies: ADP-HSP70 mutant D506A, tested form: bromide.
From the text: as §2, §3, §4, §5

A further assay addresses ADP-HSP70 L401R (Homo sapiens, UniProt P0DMV8, E110D/L401R). Nature of the assay: ITC, mutated full-length ADP-HSP70. Type of assay: binding. The following applies: ADP-HSP70 mutant L401R, tested form: bromide.
From the text: as §2, §3, §4, §5

A further assay concerns the target ADP-HSP70 L394D (Homo sapiens, UniProt P0DMV8, E110D/L394D). Nature of the assay: ITC, mutated full-length ADP-HSP70. The following applies: ADP-HSP70 mutant L394D, tested form: bromide. Type of assay: binding.
From the text: as §2, §3, §4, §5

The test system of assay [1] is human melanoma cell line 1205 Lu. Put plainly: MTT assay of human melanoma cell line 1205 Lu. The following applies: 72 h (FIG. 9D), tested form: bromide. The protocol:
FIGS. 9A-9H illustrate that PET-16 binds directly to ADP-bound HSP70 and is cytotoxic to human tumor cells. FIGS. 9A-9C are ITC assays of the interaction of PET-3C with purified human HSP70-ADP (A), human HSP70-ATP (B) and DnaK-ADP (C) proteins. The data are representative of three independent experiments. FIG. 9D is a line graph of an MTT assay of the human melanoma cell line 1205 Lu treated with the indicated concentrations of PET-16 (---) or PET-3C (-) for 72 h. The corresponding cell survival is normalized to the DMSO-treatment. Average and standard deviation (s.d.) from three independent experiments are shown. FIG. 9E is a line graph illustrating the growth of E. coli DH5α strain treated with different concentrations of PET-16 (black) or PET-3C (gray) for 6 h at 43° C. Error bars represent the s.d. of four independent experiments. FIG. 9F is a bar graph illustrating the growth of E. coli DH5α treated with DMSO, 30 μM PET-16, 30 μM PET-3C or 30 μM TPP for 6 h at 43° C. Error bars represent the s.d. of four independent experiments. FIGS. 9G and 9H are ITC measurement of the interaction of PET-DR with purified human HSP70-ADP (G) and human HSP70-ATP (H) proteins. The data are representative of three independent experiments.

One may read the Kd as the constant that tells how readily two partners part at equilibrium.

As to `C(#C[P+](c1ccccc1)(c1ccccc1)c1ccccc1)c1cccc2ccccc12`, the “effect on growth of E. coli” value in the assay with E. coli DH5α is reported as “little effect”. Also, the “binding to DnaK” value at ADP-DnaK (WT, aa 1-638) was “does not exhibit a good binding affinity”. The Kd at ADP-HSP70 (WT, aa 1-641) came to 61 µM; on ATP-HSP70 (WT), 191 µM.
In the case of `C(#Cc1ccccc1)CCC[P+](c1ccccc1)(c1ccccc1)c1ccccc1`, the “effect on growth of E. coli” value in the assay on E. coli DH5α was “much less effective”. At ADP-DnaK (WT, aa 1-638), the “binding to DnaK” value is listed as “binds much less well”. In addition, the “binding to HSP70” value at ADP-HSP70 (WT, aa 1-641) (in words, tested form: bromide) is “able to bind to HSP70”. In addition, the dissociation constant Kd on ADP-HSP70 (WT, aa 1-641) amounted to 4.9 µM; on ADP-HSP70 P398L, 37.2 µM; on ADP-HSP70 G484D, 97.9 µM; on ADP-HSP70 N505D, 90.8 µM; at ADP-HSP70 D506A, 85 µM; at ADP-HSP70 L401R, 60.4 µM. Moreover, the values for the Kd at ADP-HSP70 L394D and on ATP-HSP70 (WT) were 30.3 µM and 71.7 µM, respectively. For the same compound, the “interaction with ATP-bound HSP70” value at ATP-HSP70 (WT) (in words, tested form: bromide) is recorded as “notably reduced interaction”. Moreover, the “killing of tumor cells relative to non-transformed cells” value in assay [1] is recorded as “preferentially kills tumor cells”.
